Values joined by “and” are separate entries in the source; they are usually repeats but may differ in a detail not shown here. Equal values may be shown once.
Assays:
[1] = system: NSCLC patients with EGFR-activating mutations; experiment: Observational clinical study, response to EGFR-TKI therapy (CT imaging, RECIST); details: first-line treatment, one patient per line (Patients 1-15)
A431 cells = experiment: Confocal imaging of HX103 uptake in living cells; assay type: cell-based, human; details: pretreated with gefitinib 50 µM
HCC827 cells = experiment: Confocal imaging of HX103 uptake in living cells; assay type: cell-based, human; details: pretreated with gefitinib 50 µM
[2] = system: tumor tissues from NSCLC patients; experiment: HX103-based multicolor FACS, surgical tumor tissues; assay type: cell-based, human; details: representative dot plots #12-T, #6-T, #15-T; not background-corrected

COc1cc2ncnc(Nc3ccc(F)c(Cl)c3)c2cc1OCCCN1CCOCC1 [Gefitinib]
Response in lesion size (%) [1]: -72.8% and -46.6% and -60.0% and -32.5% | Therapy response [1]: PR (defined as a ≥30% decrease in tumor size from the baseline, partial response (PR)) | lower uptake of HX103 than untreated cells (A431 cells): ~ 50% | lower uptake of HX103 than untreated cells (HCC827 cells): ~ 50% | Q1, EGFR(+)HX103(–) cells in dot plot [2]: 84.0%
